## Antibody variant affinities, Ab-14 heavy chain, assay 1

Reference: Engelhart et al. 2022, doi:10.1038/s41597-022-01779-4. File: FLAb, binding data.

All variants were tested on one target, the spike HR2 peptide PDVDLGDISGINAS (SARS-CoV-2).

Ab-14 is the parent antibody, in scFv form: VH, then a 15-residue (Gly4Ser)3 linker, then VL. The light chain is unchanged in all variants.
VH: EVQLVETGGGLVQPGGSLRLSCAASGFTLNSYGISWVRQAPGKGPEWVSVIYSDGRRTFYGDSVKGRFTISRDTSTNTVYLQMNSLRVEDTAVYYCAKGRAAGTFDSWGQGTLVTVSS
VL: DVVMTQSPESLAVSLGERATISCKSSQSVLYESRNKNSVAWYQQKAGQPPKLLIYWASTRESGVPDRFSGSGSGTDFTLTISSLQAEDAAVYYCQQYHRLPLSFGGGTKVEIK

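The starting antibody came from a phage panning campaign against this peptide. Variants in AAYL49 differ from the parent at up to three CDR positions; double and triple changes were sampled at random. The assay is AlphaSeq: two haploid yeast populations carry antibody and antigen on their surface. After mating in shaken culture at 30 °C for 16 h, diploids were selected and their barcode pairs sequenced. The ratio of observed to expected reads was calibrated, replicate by replicate, on BCL2-family standards whose Kd was known from biolayer interferometry. There are three technical replicates.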

The parent's heavy chain CDRs are GFTLNSYGIS, VIYSDGRRTFYGDSVK, GRAAGTFDS; each variant's own CDRs replace them letter for letter.
The Kd shown is the geometric mean over detected replicates; a lower Kd is a better binder.
Where no diploid with the target was found in any replicate, the entry reads "not detected": below detection, most likely a poor binder, though not proof of it.
Three control strains display no target. For library AAYL49, 15% of the pairings with them gave a signal, with a median of 11 µM and one signal in twenty below 680 nM, so weak values seen in few replicates may be background.

CDR-H1	CDR-H2	CDR-H3	Kd (apparent)	replicates with signal
GFTLNLYGIS	VIYSDGRRTFYGDSCK	GRAAGTCDS	5.3 µM	1 of 3
GFTLNSYGIS	VIYSVGRRAFYGDSVK	GRAAGQFDS	not detected	0 of 3
GFTLNSYGIS	VIYSLGRRTKYGDSVK	HRAAGTFDS	not detected	0 of 3
GFTKNSYGIS	VDYSNGRRTFYGDSVK	GRAAGTFDS	not detected	0 of 3
GFTLNSYGIS	VSYSDGRRTFYRASVK	GRAAGTFDS	430 µM	2 of 3
GFTLNSKGIS	VIYSDGRRTFYGDSVK	ERAKGTFDS	not detected	0 of 3
GFTLNGYGIS	VIYSDGRRTFYGDSNK	LRAAGTFDS	9.7 µM	2 of 3
GFTLWSYGIS	VEYSDGRCTFYGDSVK	GRAAGTFDS	not detected	0 of 3
GFTLCSYGIS	VEYSDGRRTFYGDSVK	GRAAGTFDY	260 nM	1 of 3
GFTLNSQGNS	VIYSDGRCTFYGDSVK	GRAAGTFDS	5.4 µM	1 of 3
GFTLNSYGIS	VIYSDGQRTFYHDAVK	GRAAGTFDS	29 nM	3 of 3
GFTLNSYGIS	VIISDGRRTCYGDSVK	GRAAGTFDS	19 µM	1 of 3
GFTLNSYGIS	VIYSDGRRTKYGDSVK	GRNYGTFDS	62 µM	3 of 3
GFTENSYGDS	VIYSDGRRTFYGDSVK	GRAAGTFDS	not detected	0 of 3
GCTLNSYGIS	VIYSDGRRTFYPDSVK	LRAAGTFDS	not detected	0 of 3
GFTLNSYGIS	VIYSDGRRTFYRDSVK	GRAANTFDW	23 µM	1 of 3
GFTLNSYGIS	VIYSDGMRTFYGDSVK	YRAAGTFDA	60 nM	1 of 3
GFTLNSYGIS	VIYSDGRRTFYYGSVK	GRAAGSFDS	88 µM	2 of 3
GFTLNSYGIS	VIYMDGRRTFYGDSVK	GRDAGTRDS	not detected	0 of 3
GFTLNSYGFS	VIYSDGRRTFYGASVL	GRAAGTFDS	not detected	0 of 3
GRTLNSYGIS	VVYSDGRRTFYGDSVK	GPAAGTFDS	not detected	0 of 3
GFTLNSYGIG	VIYSDGRNTFCGDSVK	GRAAGTFDS	260 µM	1 of 3
GFTLNSYGIE	VIYSDGRRTFYGDWVK	GRAAGTADS	not detected	0 of 3
GFTLCSYGIS	VIYCDGRRTFYSDSVK	GRAAGTFDS	830 µM	1 of 3
GFTLNSYGIS	VIYSDGRRTFYGDSVK	GYAAPTFFS	not detected	0 of 3
GFYLNSYGIS	VIYSDGRRPCYGDSVK	GRAAGTFDS	4.4 µM	2 of 3
GFTLNSYGIS	VIYSDGRRDFLGDSVK	GRRAGTFDS	11 µM	2 of 3
RFTLNRYGDS	VIYSDGRRTFYGDSVK	GRAAGTFDS	not detected	0 of 3
GFTLNSYGIS	FIYSDGRRTDYGDSVK	GDAAGTFDS	not detected	0 of 3
GFTLNSYGIS	VAYSDGRRTFIGDSVK	GRSAGTFDS	not detected	0 of 3
GFTLNSYGIS	VIYSMGQRTFYGDSMK	GRAAGTFDS	not detected	0 of 3
GFVLNSYGIS	VIYSAGRRTFYGDFVK	GRAAGTFDS	not detected	0 of 3
GFTLCSYGIS	VIYSDGRRTFYGDFVG	GRAAGTFDS	not detected	0 of 3
GFTLFSYLIS	VMYSDGRRTFYGDSVK	GRAAGTFDS	3.9 µM	3 of 3
GFTKNSYGIS	VHYSDARRTFYGDSVK	GRAAGTFDS	not detected	0 of 3
GFTLNSYGIS	VIYSDGRRTFYSDSVK	GRACGTFDS	1.4 nM	3 of 3
GFCLNSYGIS	VIYSDGCRTFYGKSVK	GRAAGTFDS	not detected	0 of 3
GFTLISYGIN	VIYSDGRRTFYGDSVS	GRAAGTFDS	420 µM	1 of 3
GFTLNSYGIS	VIMSDGRRTFYGDSVK	LRAALTFDS	11 µM	1 of 3
GFTLTSYDIS	VIYSDGRRTFYGDSVK	GRAAGTFDS	not detected	0 of 3
GFTLNSDGIS	VIYSKGRNTFYGDSVK	GRAAGTFDS	17 µM	2 of 3
GFTLNSYGIS	VIYSDGRRTYYGDSVK	GRAAGTCDS	6.9 nM	3 of 3
GFTNNSRGIS	VDYSDGRRTFYGDSVK	GRAAGTFDS	2.9 µM	1 of 3
GFTLNSYGIS	VIYSDGRRTFYGDSVK	MCAAGTFDK	26 nM	3 of 3
GFTLNSLGIS	VIYSLGRRTFYGDSVK	GRAEGTFDS	not detected	0 of 3
GFTLNVFGIS	VIYSDGRRTFYGDSVK	GRAAGCFDS	not detected	0 of 3
GFTNNSYGIS	VIYSDGARTFYGDSVK	GYAAGTFDS	25 µM	1 of 3
GFTLNSYGIS	VIYSDGRRTFPGDSVK	GRAANTFDI	18 µM	1 of 3
GFTLNSYGIS	CEYGDGRRTFYGDSVK	GRAAGTFDS	110 µM	2 of 3
GFTLNSYYIS	VIYSDGRRTFYGDSVK	GRAAGTFAS	1.1 µM	2 of 3
GFTLNSYGIS	VIYSDGRRTFYGDSVK	GRAATMFDS	not detected	0 of 3
GFTLNSYGIS	VIYSDGRRTFYGDSVK	GRCAGRFCS	2.9 nM	3 of 3
GFTLNSYGIS	GIYSDGRRTRYGDSVK	CRAAGTFDS	280 µM	3 of 3
GCTLNSYDIS	VIYSDGRRTFYGDSVK	GRAAGTFWS	not detected	0 of 3
GFTLNSYGIS	VIYSDGQRTEYGDSVK	GRAAGTFDV	not detected	0 of 3
GFTLNSYGIS	SIYSDGRRTFYGDSVK	GRAAGWFYS	not detected	0 of 3
GFTLNLYGIS	VIYSDGRRTFYGDSVK	GSDAGTFDS	120 nM	3 of 3